Reference: US20120330199A1
Only a part of the results on these compounds is given; other tests are left out.

System: porcine model of cardiac arrest
Assay: SNPeCPR with stutter CPR (PC) or therapeutic hypothermia (TH) after 15 minutes of untreated VF
Conditions: both groups (PC and TH)
Protocol: The ITD prevented respiratory gases from entering the lungs during the decompression phase of CPR. […] The abdomen in this example was compressed with 40-50 lbs of pressure, applied continuously with a bend human arm, using the forearm and a force gauge. Further, 2 mg of sodium nitroprusside (SNP) were given IV at minute 1 and 1 mg at minute 3 of CPR. All animals received in addition 0.5 mg of epinephrine at minute 5, 30 seconds before the first defibrillation attempt. Six animals (PC group), were treated with 40 seconds of SNPeCPR and the first dose of SNP were followed by 20-second pauses (cessation of perfusion) and 20 second of SNPeCPR for a total of 4 cycles for up to 3 minutes. After that animals had uninterrupted SNPeCPR until defibrillation at minute 5. The other 8 animals (TH group) had SNPeCPR for a total of 5 minutes without interruptions. The TH group received 12 hours of TH (core temp=33° C.). The PC group received no TH. Cerebral performance was scored at 24 hours by a veterinarian blinded to the treatment group.

sodium nitroprusside
24-hour survival: 100%
